## AlphaSeq binding of Ab-95 light chain variants to a spike HR2 peptide

Binding partner: SARS-CoV-2 spike HR2 peptide, sequence PDVDLGDISGINAS.

Parent scFv Ab-95: VH joined to VL by a 15-residue (Gly4Ser)3 linker. Changes lie in the light chain CDRs alone.
VH: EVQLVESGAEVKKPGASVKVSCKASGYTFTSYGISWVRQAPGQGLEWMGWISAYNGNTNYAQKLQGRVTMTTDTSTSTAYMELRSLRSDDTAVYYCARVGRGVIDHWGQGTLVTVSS
VL: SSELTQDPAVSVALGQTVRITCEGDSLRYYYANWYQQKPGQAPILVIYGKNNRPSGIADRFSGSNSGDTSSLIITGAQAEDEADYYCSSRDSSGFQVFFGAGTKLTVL

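The library (AAYL52) carries one to three amino acid substitutions per variant, with no insertions or deletions. The scFvs were displayed on barcoded MATa yeast, the peptide on MATalpha yeast. After mating in shaken culture at 30 °C for 16 h, diploids were selected and their barcode pairs sequenced. The ratio of observed to expected reads was calibrated, replicate by replicate, on BCL2-family standards whose Kd was known from biolayer interferometry. The assay was run in three technical replicates.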

Each variant is given by its three light chain CDRs, as the data file delimits them; those of the parent are EGDSLRYYYAN, GKNNRPS, SSRDSSGFQVF.
Values are log10 of the apparent Kd in nM; lower means stronger binding.
The mean shown is taken over the replicates in which the pair was detected.
Where no diploid with the target was found in that replicate, the entry reads "ND": below detection, most likely a poor binder, though not proof of it.
In this assay the parent's reference entry averaged 2.31; its copy inside this library read 2.25.

| CDR-L1 | CDR-L2 | CDR-L3 | replicates, log10 nM | mean log10 Kd (nM) | empty controls |
|---|---|---|---|---|---|
| EGDSLRYLAAN | GKNNRPS | SSRDSSGFQTF | ND / 3.21 / ND | 3.21 | 3/9 (4.34) |
| EGDSLRYYYAN | GKNNEPS | SMRDSSGFQVF | ND / ND / ND | ND | 2/9 (3.76) |
| HGDSLRYYYAN | GKNNRPS | SSRDSSCFYVF | 2.56 / 2.92 / 3.15 | 2.88 | 2/9 (5.10) |
| EGDSLHYYYAN | GKNNVPD | SSRDSSGFQVF | 2.58 / 2.63 / 2.72 | 2.64 | 2/9 (5.05) |
| EGESLPYYYAN | GKNNRPS | SSRDVSGFQVF | 2.47 / 2.14 / 2.52 | 2.38 | 5/9 (4.19) |
| EGLSVRYYYKN | GKNNRPS | SSRDSSGFQVF | ND / 3.82 / 2.81 | 3.32 | 4/9 (4.15) |
| EGDSLRYYYAN | GSHNRPS | SSRDSSGFQVF | 3.69 / 2.93 / 2.09 | 2.91 | 1/9 (3.97) |
| EGDSLRYYYAN | GKNNRPV | LSRDSSGFQKF | 4.14 / ND / 4.16 | 4.15 | 4/9 (4.44) |
| DGDSLYYAYAN | GKNNRPS | SSRDSSGFQVF | 2.11 / 2.11 / 1.52 | 1.91 | 5/9 (4.49) |
| EGDSYQYYYAN | GKNNRPS | SSRDSSGFPVF | 3.33 / 4.00 / 4.28 | 3.87 | 5/9 (4.02) |
| EGDSLRYTYAN | GKNNRPL | PSRDSSGFQVF | 4.79 / ND / 3.13 | 3.96 | 2/9 (4.70) |
| EGDSLFYYYAN | GKNNRPS | SSRDSSGKHVF | 3.33 / ND / ND | 3.33 | 3/9 (3.79) |
| EGDSLRYYYAN | GKNNRPS | SSRDSSGFGLF | 2.03 / 1.95 / 1.81 | 1.93 | 3/9 (3.87) |
| EGDSLRYMYAN | GENNRPK | SSRDSSGFQVF | 2.00 / 1.67 / 1.41 | 1.69 | 3/9 (3.68) |
| EGDGLRYYYAN | GKNNRPS | FSTDSSGFQVF | 3.65 / 3.94 / 3.95 | 3.84 | 1/9 (4.37) |
| EGDSLRYYYAN | GKWNRPM | SSRDSSWFQVF | ND / ND / ND | ND | 1/9 (4.33) |
| EGDSLRAYYAN | GKNNRPS | SPRDSSGFYVF | 4.04 / ND / ND | 4.04 | 5/9 (3.80) |
| EGDSLRYYDAN | GKNNRPS | SSRTSSGNQVF | 1.44 / 1.36 / 0.73 | 1.18 | 4/9 (3.67) |
| EGDSSRYYYAN | GKKNLPS | SSRDSSGFQVF | ND / ND / ND | ND | 3/9 (3.17) |
| EGDSLRYYYAP | GKNNRPH | SSRDSSSFQVF | ND / ND / 4.58 | 4.58 | 3/9 (3.08) |
| EGDSLRYYYAN | GKNNRPS | QSRTSSGFQYF | 3.42 / ND / ND | 3.42 | 0/9 |
| EGDSLRYYYAN | GKFDRPS | SVRDSSGFQVF | 4.34 / 3.74 / 4.23 | 4.10 | 0/9 |
| EGGSLRYYYAN | GKNNRPS | CSRNSSGFQVF | ND / ND / 3.91 | 3.91 | 3/9 (3.98) |
| EGDSLRYYYLN | GKGNRPS | SSRDSSGFGVF | 5.48 / 4.38 / 3.35 | 4.40 | 5/9 (3.57) |
| EGDSLRYYYAN | GINNRPS | MSRDSSGFQLF | ND / ND / ND | ND | 1/9 (3.62) |
| EGDFLRYYYAN | GYGNRPS | SSRDSSGFQVF | 5.18 / 3.53 / 2.87 | 3.86 | 3/9 (4.04) |
| EGDHLPYYYAN | GKNNRPS | QSRDSSGFQVF | ND / ND / ND | ND | 1/9 (2.48) |
| EGDYLRYYYAN | GKNNRPS | SSRPSSPFQVF | 2.39 / 2.43 / 3.11 | 2.64 | 4/9 (4.32) |
| EGTSLRYYYAN | GKNNQPS | SSRDSSGFQVF | 2.79 / 3.04 / 2.22 | 2.68 | 2/9 (3.52) |
| EGDSLRYYYAN | KKNNRPW | SSRESSGFQVF | ND / 3.75 / 3.48 | 3.61 | 2/9 (3.78) |
| EGDSLRYYYAN | GKNARPS | SSRDSWGFQKF | 3.46 / 4.62 / ND | 4.04 | 1/9 (4.24) |
| EGDSLRYYYAK | GKNNRPS | SSRDSSEFQVL | ND / ND / ND | ND | 1/9 (3.27) |
| EGDSLRHYYAN | GKNNRPM | SSRDSSGFWVF | 1.87 / 1.72 / 1.43 | 1.68 | 4/9 (3.59) |
| EGDSLRYYYAN | GKNNRPS | SSRGYSGFQVF | ND / 3.56 / ND | 3.56 | 3/9 (4.03) |
| ETDSLRYYYAN | GKNVRPS | SSRDSLGFQVF | 3.75 / ND / ND | 3.75 | 4/9 (3.48) |
| EGDSLRYYYAY | GTNNRPS | GSRDSSGFQVF | 4.02 / 5.15 / 3.68 | 4.28 | 5/9 (4.12) |
| EGDSLRYYRVN | GKNNRPS | SSRDSSGFNVF | 2.89 / 3.67 / 3.12 | 3.22 | 4/9 (3.61) |
| EGDSLRYYTAN | IKNNRPS | SSRDSSGFQVF | 3.87 / ND / ND | 3.87 | 2/9 (3.39) |
| EYDSLRYYYAI | GKNNRPS | SSRDSSGFQVH | 2.75 / 2.70 / 2.00 | 2.48 | 1/9 (5.02) |
| EGDSLRYYAAN | GKNNRPS | SKRDMSGFQVF | 3.26 / 3.29 / 2.46 | 3.00 | 7/9 (3.88) |
| EGDFLRYYYAN | MKNPRPS | SSRDSSGFQVF | 4.28 / ND / ND | 4.28 | 5/9 (3.49) |
| EGLSLRYYYAN | FKNNRDS | SSRDSSGFQVF | ND / ND / ND | ND | 0/9 |
| EGDSLQYYYAT | GKANRPS | SSRDSSGFQVF | ND / ND / ND | ND | 1/9 (4.00) |
| EGDSLRGRYAQ | GKNNRPS | SSRDSSGFQVF | 2.50 / 2.39 / 2.20 | 2.36 | 5/9 (4.51) |
| EGDSLRYYCAN | GKNNIPS | SSRMSSGFQVF | 2.85 / 3.26 / 2.22 | 2.78 | 1/9 (4.07) |
| WGDSLRYYYAN | GKNNRPS | SSRDSSGFQCF | 3.39 / 3.62 / 3.71 | 3.57 | 2/9 (3.27) |
| EGDSLRYYYAD | NKMNRPS | SSRDSSGFQVF | ND / 3.76 / ND | 3.76 | 3/9 (3.90) |
| EGDSLRYYYAN | GWNNRCK | SSRDSSGFQVF | ND / ND / 4.10 | 4.10 | 4/9 (3.59) |
| EGDVLRYYYAN | GKNNRPS | SSTDSSLFQVF | ND / ND / ND | ND | 1/9 (3.34) |
| EYDSLRYYYAM | GKNNRNS | SSRDSSGFQVF | 5.05 / 4.79 / 4.37 | 4.74 | 3/9 (3.99) |
| EGDSLRYYYAN | PKNNRPS | SSRESSGFQVR | 4.98 / ND / ND | 4.98 | 1/9 (5.43) |
| EGLSLRYYYAN | GKPNRPS | SSRDSSGFQVF | ND / 3.48 / ND | 3.48 | 4/9 (3.74) |

The first 6 entries again:

CDR-L1	CDR-L2	CDR-L3	replicates, log10 nM	mean log10 Kd (nM)	empty controls
EGDSLRYLAAN	GKNNRPS	SSRDSSGFQTF	ND / 3.21 / ND	3.21	3/9 (4.34)
EGDSLRYYYAN	GKNNEPS	SMRDSSGFQVF	ND / ND / ND	ND	2/9 (3.76)
HGDSLRYYYAN	GKNNRPS	SSRDSSCFYVF	2.56 / 2.92 / 3.15	2.88	2/9 (5.10)
EGDSLHYYYAN	GKNNVPD	SSRDSSGFQVF	2.58 / 2.63 / 2.72	2.64	2/9 (5.05)
EGESLPYYYAN	GKNNRPS	SSRDVSGFQVF	2.47 / 2.14 / 2.52	2.38	5/9 (4.19)
EGLSVRYYYKN	GKNNRPS	SSRDSSGFQVF	ND / 3.82 / 2.81	3.32	4/9 (4.15)

As a blank, each scFv also met three strains without target: over library AAYL52, 28% of these pairings were detected, typically at 3.91 and seldom below 2.90. Also given: how often the same scFv was detected with the empty control strains, with their mean in brackets.

Source: Engelhart et al. 2022 (doi:10.1038/s41597-022-01779-4), MIT Lincoln Laboratory and A-Alpha Bio; data file from the FLAb repository.